The experiment is described as follows: NCI Yeast Anticancer Drug Screen. Data for the mlh1 strain (AID 171).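 Further: 0% = growth of vehicle-treated control cultures of the same strain.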 Particulars: S. cerevisiae mlh1 strain growth inhibition, active compounds read high. The protocol:
Growth inhibition of yeast strains with defined genetic alterations is measured as a screen for potential anti-cancer activity. Selected strains with alterations in DNA damage repair or cell cycle control were exposed to compounds and growth inhibition was measured relative to vehicle treated controls. The strain used in this assay is mlh1

SMILES strings stand for the structures. The list shows a part of the results, in another mix than the full data. Some structures have more than one record in an assay (separate samples or runs), and their calls can disagree. The source made the active and inactive calls. No stated cut-off is given here; in the data, active means growth inhibition above about 70%; inactive means the rest.

The results in this text go back to PubChem BioAssay (NCI).

As to `COc1ccc([N+](=O)[O-])c(C[N+](C)(CCCl)CCCl)c1`, the growth inhibition is, setting by setting: (at 1.2 µM) inactive: 8%; (at 3.7 µM) inactive: 10%; (at 11.0 µM) inactive: 10%; (at 33.0 µM) inactive: 18%; (at 100.0 µM) inactive: 43%.

Regarding `Cc1cccc(C[N+](C)(CCCl)CCCl)c1[N+](=O)[O-]`, the growth inhibition runs as follows: (at 1.2 µM) inactive: -2%; (at 3.7 µM) inactive: -4%; (at 11.0 µM) inactive: 10%; (at 33.0 µM) inactive: 48%; (at 100.0 µM) active: 90%.

As for `Cn1cnc([N+](=O)[O-])c1C[N+](C)(CCCl)CCCl`, the growth inhibition (at 1.2 µM) was inactive: -22%; the growth inhibition (at 3.7 µM) was inactive: -8%; the growth inhibition (at 11.0 µM) is inactive: 8%; the growth inhibition (at 33.0 µM) was inactive: 38%; the growth inhibition (at 100.0 µM) was active: 77%.

For `ClCCN1CCCCC1CCl` (stereo not given), the growth inhibition (at 1.2 µM) is inactive: -1%; the growth inhibition (at 3.7 µM) is inactive: -1%; the growth inhibition (at 11.0 µM) is inactive: 1%; the growth inhibition (at 33.0 µM) was inactive: 7%; the growth inhibition (at 100.0 µM) is inactive: 35%.

With `Cc1ccc([N+](=O)[O-])c(C[N+](C)(CCCl)CCCl)c1`, the growth inhibition is, setting by setting: (at 1.2 µM) inactive: -28%; (at 3.7 µM) inactive: -27%; (at 11.0 µM) inactive: 11%; (at 33.0 µM) inactive: 41%; (at 100.0 µM) active: 93%.

Regarding `COc1ccc(C[N+](C)(CCCl)CCCl)c([N+](=O)[O-])c1`, the growth inhibition by setting is: (at 1.2 µM) inactive: 1%; (at 3.7 µM) inactive: 6%; (at 11.0 µM) inactive: 9%; (at 33.0 µM) inactive: 15%; (at 100.0 µM) inactive: 16%.
